Measured values taken from US5670479A, “α-ketoamide derivatives as inhibitors of thrombosis” (Corvas International, Inc., priority 1994, dated 1997).

Tested on: Male Harlan Sprague Dawley rats
Assay: Venous stasis model in rats
Type: in vivo
Conditions: rat, summary in words

For CCCC(CCC)C(=O)N[C@@H](CC(=O)O)C(=O)N1CCC[C@H]1C(=O)N[C@@H](CCCNC(=N)N)C(=O)C(=O)NCC(=O)NCC(=O)NCC(=O)NCC(=O)NCC(=O)N[C@@H](CC(N)=O)C(=O)NCC(=O)N[C@@H](CC(=O)O)C(=O)N[C@@H](Cc1ccccc1)C(=O)N[C@@H](CCC(=O)O)C(=O)N[C@@H](CCC(=O)O)C(=O)N[C@H](C(=O)N1CCC[C@H]1C(=O)N[C@@H](CCC(=O)O)C(=O)N[C@@H](Cc1ccc(O)cc1)C(=O)N[C@@H](CC(C)C)C(=O)O)[C@@H](C)CC, the “effect on venous thrombus formation induced by stasis and thromboplastin” value was “very efficacious in dose-dependently preventing venous thrombus formation”.
